Inhibition data for one compound are collected here from PubChem BioAssay AID1481 (The Scripps Research Institute Molecular Screening Center, 2009).

By UniProt entry, the sequences of proteins in these tests, tags left out.
UniProt P55072, whole entry: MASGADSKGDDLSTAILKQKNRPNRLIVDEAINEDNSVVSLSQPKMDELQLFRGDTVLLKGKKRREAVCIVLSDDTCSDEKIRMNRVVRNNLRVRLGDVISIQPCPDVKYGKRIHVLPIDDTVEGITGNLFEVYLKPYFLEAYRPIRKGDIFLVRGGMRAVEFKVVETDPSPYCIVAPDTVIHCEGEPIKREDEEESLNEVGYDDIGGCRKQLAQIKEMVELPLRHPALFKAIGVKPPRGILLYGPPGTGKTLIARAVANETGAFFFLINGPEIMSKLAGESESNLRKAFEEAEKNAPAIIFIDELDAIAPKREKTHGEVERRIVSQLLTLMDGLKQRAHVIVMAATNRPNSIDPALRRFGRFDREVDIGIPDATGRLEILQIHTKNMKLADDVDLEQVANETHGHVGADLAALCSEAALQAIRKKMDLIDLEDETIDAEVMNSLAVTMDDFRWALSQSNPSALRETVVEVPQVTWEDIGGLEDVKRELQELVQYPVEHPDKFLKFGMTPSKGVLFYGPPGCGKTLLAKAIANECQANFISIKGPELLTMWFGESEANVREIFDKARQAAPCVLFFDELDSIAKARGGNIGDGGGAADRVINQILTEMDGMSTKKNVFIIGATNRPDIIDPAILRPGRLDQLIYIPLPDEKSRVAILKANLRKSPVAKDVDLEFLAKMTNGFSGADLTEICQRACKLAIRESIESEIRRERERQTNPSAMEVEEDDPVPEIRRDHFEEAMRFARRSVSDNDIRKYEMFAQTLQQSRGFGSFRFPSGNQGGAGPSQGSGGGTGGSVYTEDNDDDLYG

The structures appear in SMILES notation. Only a part is listed here, and it is no random draw. Calls of active or inactive are those of the source. No stated cut-off is given here; in the data, active means inhibition above about 15%; inactive means the rest.

The target in this assay is Transitional endoplasmic reticulum ATPase (Homo sapiens) (UniProt P55072). In words: inhibitors of human p97 ATPase, primary screen, biochemical (AID 1481).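 Further: 0% = DMSO vehicle and 100% = wells lacking enzyme.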 Particulars: recombinant p97 ATPase, Kinase-Glo ATP luminescence, 3 h; at 8 µM; hits give high values. In general terms: In Kinase-Glo more light means more ATP remaining.
Consider `CCOC(=O)NC(Sc1ccccc1)C(Cl)(Cl)Cl` (stereo unspecified), for which the inhibition was inactive: 4.02%.

The inhibition is how much of the control response was suppressed.
